{"source": "patent US11202837B2", "about": "“Biological materials and uses thereof” (Antikor Biopharma Limited, priority 2014, dated 2021)", "key": {"NCI-N87 cells": {"test_system": "NCI-N87 cells", "test": "Cell killing assay (MTS), NCI-N87 cells", "assay_type": "cell-based, human", "details": "96 hours", "description": "The cells were recovered by centrifugation (2 min, 2000 rpm), the supernatant was discarded, and the cells were resuspended in complete McCoy's 5A (5 ml). The cells were then counted using a haemocytometer and diluted accordingly. They were plated at 5000 cells/well (200 μl) using attachment factor and incubated overnight at 37° C., 5% CO2 in a humidified atmosphere. U87 is a non-HER2 expressing glioblastoma cell line [Zitron I M et al (2013) BMC Cancer 13:83] and was grown in a similar way, plated at 1000 cells/well (using DMEM media). BT474 is a HER2 expressing breast cancer cell line [Brockhoff G et al (2007) Cell Prolif 40:488-507] and was grown in a similar way, plated at 7500 cells/well (using RPMI media). NCI-N87 is a HER2 expressing gastric cancer cell line [Yamashita-Kashima Y et al (2013) Oncol. Rep 30:1087-93] and was grown in a similar way, plated at 7500 cells/well (using RPMI media).\nThe cells were exposed to the various ADCs diluted in complete media for 96 hours at 37° C., 5% CO2 in a humidified atmosphere. Cell viability was measured using the Promega Aqueous Cell-titre-96™ aqueous one solution cell proliferation kit (MTS reagent) according to manufacturer's instructions. Briefly, the media was removed and 100 μl of complete phenol red free media, pre-combined with MTS reagent, was added to the cells (20 μl of reagent per 100 μl of media). The plates were read on an ELISA plate reader at 490 nm after a 2 hr incubation in the dark (5% CO2, 37° C.).\nThe data (absorption units) were converted to % cell survival by using the untreated controls as the 100% cell survival and the Triton X-100 controls as the 100% cell death. The average absorption value for the latter was subtracted from all the rest of the data in order to get a suitable baseline. The averages were converted to survival and standard error values were obtained for each n value (as a % cell survival). […] Experiments were repeated at least 3 times for each compound tested and a set or an average of the data was plotted and fitted to obtain a dose-response curve."}, "[1]": {"test": "Plasma pharmacokinetics in BALB/c mice (ELISA, total antibody and total ADC)", "assay_type": "in vivo, mouse", "details": "1 × 5 mg/kg, mean AUC in anti-payload and anti-protein detection", "description": "Mice. Female BALB/c mice (BALB/cAnNCrl, Charles River) were eight weeks old with body weights ranging from 15.9 to 21.9 grams at the beginning of the study. The animals were fed ad libitum water (reverse osmosis, 1 ppm Cl) and NIH 31 Modified and Irradiated Lab Diet® consisting of 18.0% crude protein, 5.0% crude fat, and 5.0% crude fiber. The mice were housed on irradiated Enrich-o'cobs™ Laboratory Animal Bedding in static microisolators on a 12-hour light cycle at 20-22° C. (68-72° F.) and at 40-60% humidity. Charles River Discovery Services North Carolina (CR Discovery Services, who carried out this contracted R&D) specifically complies with the recommendations of the Guide for Care and Use of Laboratory Animals with respect to restraint, husbandry, surgical procedures, feed and fluid regulation, and veterinary care. The Animal Care and Use program at CR Discovery Services is accredited by the Association for Assessment and Accreditation of Laboratory Animal Care International, which assures compliance with accepted standards for the care and use of laboratory animals.\nTherapeutic (test) Agents. All test agents were supplied as ready-to-dose dosing solutions. All dosing solutions were stored at 4° C. until dosed. All treatments were administered in a dosing volume scaled to the body weights of the individual animals to obtain the dosing concentration described in the treatment tables.\nTreatment (mice). On Day 1 of the study, mice were divided into groups each consisting of eighteen mice (per test agent being evaluated), and dosing was initiated according to the treatment plan summarized in the treatment tables. All doses were administered intravenously (i.v.) by tail vein injection as described in the tables below.\nEndpoint. […]\nQuantification of test agents in plasma. […]\n(Concortis) and anti-cemadotin (in-house mouse monoclonal antibody, Example 33 that also recognised P5C5 and AuristatinF), total ADC. The reference test agents were used to construct a calibration curve for which the plasma samples were compared to, in order to quantify the amount present. […]"}, "U87 cells": {"test_system": "U87 cells", "test": "Cell killing assay (MTS), U87 cells", "assay_type": "cell-based", "details": "U87 Cells (HER2−), 96 hours, Table 46", "description": "SKBr3, human breast cancer cell line, high HER2 expression levels, up to 1,000,000 receptors per cell [Lazar G A, et al Proc Natl Acad Sci USA. […] When confluency was 70-80%, cells were washed with PBS (2×10 ml) and incubated with trypsin for 5-7 min. Complete media was added and the cells were resuspended by pipetting. The cells were recovered by centrifugation (2 min, 2000 rpm), the supernatant was discarded, and the cells were resuspended in complete DMEM (5 ml). The cells were then counted using a haemocytometer and diluted accordingly. They were plated at 4500 cells/well (200 μl) using attachment factor and incubated overnight at 37° C., 5% CO2 in a humidified atmosphere. […]\nThe cells were exposed to the various ADCs diluted in complete media for 96 hours at 37° C., 5% CO2 in a humidified atmosphere. Cell viability was measured using the Promega Aqueous Cell-titre-96™ aqueous one solution cell proliferation kit according to manufacturer's instructions. […] The plates were read on an ELISA plate reader at 490 nm after a 2 hr incubation in the dark (5% CO2, 37° C.). […]\nThe cells were recovered by centrifugation (2 min, 2000 rpm), the supernatant was discarded, and the cells were resuspended in complete McCoy's 5A (5 ml). The cells were then counted using a haemocytometer and diluted accordingly. […]"}, "[2]": {"test_system": "BT474 human breast carcinoma xenografts", "test": "Tumour penetration in BT474 xenografts, immunohistochemistry 2 hrs post dose", "assay_type": "in vivo, mouse", "details": "5 mg/kg single i.v. dose, SCID mice, BT474, payload detection (total ADC)", "description": "Mice. […] The animals were fed ad libitum water (reverse osmosis, 1 ppm Cl), and NIH 31 Modified and Irradiated Lab Diet® consisting of 18.0% crude protein, 5.0% crude fat, and 5.0% crude fiber. The mice were housed on irradiated Enrich-o'cobs™ Laboratory Animal Bedding in static microisolators on a 12-hour light cycle at 20-22° C. (68-72° F.) and 40-60% humidity. Charles River Discovery Services North Carolina (CR Discovery Services, who carried out this contracted R&D) specifically complies with the recommendations of the Guide for Care and Use of Laboratory Animals with respect to restraint, husbandry, surgical procedures, feed and fluid regulation, and veterinary care. […]\nIn Vivo Implantation and Tumor Growth. […] On the day of tumor implant, each test mouse received a 1 mm^3 BT474 fragment implanted subcutaneously in the right flank, and tumor growth was monitored as the average size approached the target range of 400 to 600 mm^3. […] Tumors were measured in two dimensions using calipers, and volume was calculated using the formula: Tumor Volume (mm^3)=w^2×I/2\nTherapeutic (test) Agents. All test agents were prepared as ready-to-dose dosing solutions at concentrations of 0.625 mg/mL. […]"}, "[3]": {"test_system": "BT474 human breast carcinoma xenografts", "test": "Tumour growth inhibition or eradication in BT474 xenograft model", "assay_type": "in vivo", "details": "5 mg/kg dosing regimen", "description": "Mice. […] The animals were fed ad libitum water (reverse osmosis, 1 ppm Cl), and NIH 31 Modified and Irradiated Lab Diet® consisting of 18.0% crude protein, 5.0% crude fat, and 5.0% crude fiber. The mice were housed on irradiated Enrich-o'cobs™ Laboratory Animal Bedding in static microisolators on a 12-hour light cycle at 20-22° C. (68-72° F.) and 40-60% humidity. Charles River Discovery Services North Carolina (CR Discovery Services, who carried out this contracted R&D) specifically complies with the recommendations of the Guide for Care and Use of Laboratory Animals with respect to restraint, husbandry, surgical procedures, feed and fluid regulation, and veterinary care.\nTumor weight may be estimated with the assumption that 1 mg is equivalent to 1 mm^3 of tumor volume."}, "[4]": {"details": "NCI-N87 Cells (HER2++), Table 51"}}, "note": "pIC50: −log10 of the molar value.", "data": [{"substance": "Trastuzumab-Auristatin F-C5, DAR 4.8", "values": [{"measurement": "IC50 μg/ml", "setting": "NCI-N87 cells; NCI-N874 Cells (HER2++), Table 49", "result": 0.0018, "unit": "µg/mL"}]}, {"substance": "Trastuzumab-MMAE-PAB-Cit-Val-dPEG9, DAR 4", "values": [{"measurement": "IC50 μg/ml", "setting": "NCI-N87 cells; [4]", "result": 0.067, "unit": "µg/mL"}, {"measurement": "pIC50", "setting": "NCI-N87 cells; [4]", "result": 9.35}]}, {"substance": "Trastuzumab-MMAF-C5", "values": [{"measurement": "Bioavailability (blood exposure, AUC, 24 hrs)", "setting": "[1]; Table 55", "result": 1890, "unit": "μghr/ml"}, {"measurement": "Bioavailability (blood exposure, AUC, 24 hrs)", "setting": "[1]; Table 57", "result": 1890, "unit": "μghr/ml"}]}, {"substance": "Trastuzumab-MMAF-C5, DAR 4", "values": [{"measurement": "IC50", "setting": "U87 cells", "result": ">5", "unit": "µg/mL"}]}, {"substance": "Trastuzumab-P5C5", "values": [{"measurement": "localisation in tumour sections at 2 hrs post-dosing", "setting": "[2]", "result": "Very little"}, {"measurement": "Bioavailability (blood exposure, AUC, 24 hrs)", "setting": "[1]; Table 59", "result": ">150", "unit": "μghr/ml"}, {"measurement": "tumour growth delay", "setting": "[3]", "result": "marginal, insignificant growth delay"}]}]}
